Experimental data as given in PubChem BioAssay AID2806 (Sanford-Burnham Center for Chemical Genomics, 2010).
Only a part is listed here, and it is no random draw. Activity calls are given as the source filed them.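 The calls were made as follows: active = inhibition of at least 40% at 10 µM in the primary screen; inactive = the rest.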

Tested on: intestinal alkaline phosphatase [Mus musculus]
Assay: mouse intestinal phosphatase enzyme inhibition – biochemical, luminescence, uHTS, primary screen (AID 2806);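 also: plate controls were DMSO with enzyme for no effect and no enzyme wells for full effect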
Conditions: purified mouse IAP, CDP-Star luminescence, 30 min; at 10 µM; hits give high values

Q: CCC(=O)N(c1ccccc1)C1(COC)CCN(CCc2cccs2)CC1 was tested. Which inhibition did it give?
A: inactive: -19.6%

Q: CCC(=O)N(c1ccccc1)C1(COC)CCN(CCn2nnn(CC)c2=O)CC1 was tested. Which inhibition did it give?
A: inactive: -9.7%
